Test results from patent US20090036389A1, “Polymeric Micelle Formulations of Hydrophobic Compounds and Methods” (priority 2002, published 2009).

Test system: bovine erythrocytes

Row | Substance | hemolysis by polymer micelles in the absence of AmB | hemolysis at 9 h | hemolysis at 16 h | hemolysis at 24 h | onset of hemolysis | time-dependent hemolytic profile / onset of hemolysis
1 | poly(ethylene glycol)-block-poly(N-hexyl-L-aspartamide)-stearic acid ester [PEG-b-p(HASA), 46%] | no hemolysis was observed |  |  |  |  | 
2 | poly(ethylene glycol)-block-poly(N-hexyl-L-aspartamide)-stearic acid ester [PEG-b-p(HASA), 91%] |  | very little hemolysis | 20% | approximately 40% | more rapid | delayed compared to equivalent concentrations of free AmB
